## AlphaSeq binding of Ab-91 heavy chain variants to a spike HR2 peptide

Target: peptide PDVDLGDISGINAS, taken from heptad repeat 2 (HR2) of SARS-CoV-2 spike.

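The starting antibody came from a phage panning campaign against this peptide. Library AAYL51 holds single substitutions and randomly drawn double and triple substitutions in the CDRs. The assay is AlphaSeq: two haploid yeast populations carry antibody and antigen on their surface. The frequency of each diploid, read from paired DNA barcodes, reflects how well the two displayed proteins bind. Scores were corrected for input abundance and mapped to Kd with protein pairs of known affinity run in the same pool. Each pool was mated in three replicate cultures.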

Ab-91 is the parent antibody, in scFv form: VL, then three GGGGS repeats, then VH. The light chain is unchanged in all variants.
VL: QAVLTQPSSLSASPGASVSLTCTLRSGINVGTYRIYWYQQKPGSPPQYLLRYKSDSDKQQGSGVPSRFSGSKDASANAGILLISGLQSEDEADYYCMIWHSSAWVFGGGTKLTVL
VH: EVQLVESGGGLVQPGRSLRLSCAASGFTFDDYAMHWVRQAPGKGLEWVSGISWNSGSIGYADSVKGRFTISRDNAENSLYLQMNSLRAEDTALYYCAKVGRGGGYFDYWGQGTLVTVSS

Changes read parent residue, position, new residue, counted from the first residue of the VH shown.
Each Kd is an estimate from the mating assay, the geometric mean of the replicates in which the pair was seen; lower is stronger.
Where no diploid with the target was found in any replicate, the entry reads "nd": below detection, most likely a poor binder, though not proof of it.
In this assay the parent's reference entry averaged 72 nM; its copy inside this library read 7.5 nM.
Background: pairings of library AAYL51 with three empty control strains gave a value in 21% of cases (median 34 µM, 5th percentile 1.8 µM). Values in that range, when seen in few replicates, are hard to tell from nonspecific mating.

| changes | Kd (apparent) | seen in |
|---|---|---|
| I51C+I58K+K65N | 2.3 µM | 3/3 |
| H35L+G59H+V99H | 32 µM | 1/3 |
| I51M+W53Y+G56A | 43 nM | 3/3 |
| G26D+S63V+Y105P | 710 µM | 3/3 |
| S57R+D62S+G100D | 8.1 µM | 1/3 |
| S55H+K65P+Y108L | nd | 0/3 |
| D30Q+M34Q+K65Q | nd | 0/3 |
| G26N+D30P+H35N | 99 µM | 2/3 |
| G59E+F106D+Y108M | 620 µM | 2/3 |
| M34V+I58F+A61D | nd | 0/3 |
| W53P+S55R+I58V | 3.8 nM | 3/3 |
| Y60M+D62E+Y108C | 22 µM | 1/3 |
| W53Q+K65E | 410 nM | 3/3 |
| A33N+G59M+G100W | 13 µM | 1/3 |
| G26C+T28Q+A61F | 1.2 µM | 1/3 |
| I51N+N54W+Y105I | 80 µM | 2/3 |
| G59N+Y60R+A61T | 3.2 µM | 1/3 |
| I51A+N54M+Y60A | nd | 0/3 |
| G56T+K65L+G103I | 2.3 µM | 3/3 |
| A33Q+V99W+Y108D | nd | 0/3 |
| T28G+F29Y+G56R | nd | 0/3 |
| G50F+V64R+Y108E | 160 µM | 2/3 |
| W53S+F106H | 390 nM | 3/3 |
| T28Q+D31R+R101Q | 3.0 nM | 3/3 |
| M34R+W53G+G103D | nd | 0/3 |

The remaining entries, values ahead:

| Kd (apparent) | seen in | changes |
|---|---|---|
| 37 µM | 2/3 | T28G+Y32M+A61N |
| nd | 0/3 | A33N+W53Y+V64Q |
| 5.3 µM | 2/3 | G26T+R101Y+G102T |
| 130 µM | 1/3 | W53T+G59N+G102Y |
| nd | 0/3 | G50Y+A61N+V99E |
| 20 µM | 2/3 | I51G+S63T+V99W |
| 42 µM | 1/3 | G50D+K65L+G100Q |
| nd | 0/3 | G26A+I51C+G100W |
| nd | 0/3 | D31Q+S55T+Y60H |
| 380 nM | 3/3 | W53Q+S57A |
| 6.3 µM | 3/3 | F27S+D30H+G56L |
| nd | 0/3 | I51K+G56K+I58T |
| 120 µM | 2/3 | D30A+A61V+G104Y |
| 98 µM | 1/3 | A33D+D62I+G100S |
| 720 µM | 1/3 | Y32Q+W53C |
| 14 µM | 3/3 | D62C+D107Q+Y108L |
| nd | 0/3 | D62K+V99L+G102Q |
| 99 µM | 2/3 | A33P+G56A+G104S |
| nd | 0/3 | G26C+F27E+A33K |
| 310 µM | 1/3 | D31S+A33Q+D107W |
| nd | 0/3 | S57I+K65Y |
| nd | 0/3 | G26V+W53D+G104A |
| 51 µM | 1/3 | V99M+D107H |
| nd | 0/3 | D30A+D31G+Y60K |
| 99 µM | 3/3 | G26N+F27M+Y105P |

The first 3 entries again:

| changes | Kd (apparent) | seen in |
|---|---|---|
| I51C+I58K+K65N | 2.3 µM | 3/3 |
| H35L+G59H+V99H | 32 µM | 1/3 |
| I51M+W53Y+G56A | 43 nM | 3/3 |

Values reported by Engelhart et al. 2022, doi:10.1038/s41597-022-01779-4 (FLAb copy).